Data published in US8822500B2 (dated 2014).

Protein sequences, listed by entry. Tags and fused reporters are not part of them. Residues count along the entry.
UniProt P04629, 33-796: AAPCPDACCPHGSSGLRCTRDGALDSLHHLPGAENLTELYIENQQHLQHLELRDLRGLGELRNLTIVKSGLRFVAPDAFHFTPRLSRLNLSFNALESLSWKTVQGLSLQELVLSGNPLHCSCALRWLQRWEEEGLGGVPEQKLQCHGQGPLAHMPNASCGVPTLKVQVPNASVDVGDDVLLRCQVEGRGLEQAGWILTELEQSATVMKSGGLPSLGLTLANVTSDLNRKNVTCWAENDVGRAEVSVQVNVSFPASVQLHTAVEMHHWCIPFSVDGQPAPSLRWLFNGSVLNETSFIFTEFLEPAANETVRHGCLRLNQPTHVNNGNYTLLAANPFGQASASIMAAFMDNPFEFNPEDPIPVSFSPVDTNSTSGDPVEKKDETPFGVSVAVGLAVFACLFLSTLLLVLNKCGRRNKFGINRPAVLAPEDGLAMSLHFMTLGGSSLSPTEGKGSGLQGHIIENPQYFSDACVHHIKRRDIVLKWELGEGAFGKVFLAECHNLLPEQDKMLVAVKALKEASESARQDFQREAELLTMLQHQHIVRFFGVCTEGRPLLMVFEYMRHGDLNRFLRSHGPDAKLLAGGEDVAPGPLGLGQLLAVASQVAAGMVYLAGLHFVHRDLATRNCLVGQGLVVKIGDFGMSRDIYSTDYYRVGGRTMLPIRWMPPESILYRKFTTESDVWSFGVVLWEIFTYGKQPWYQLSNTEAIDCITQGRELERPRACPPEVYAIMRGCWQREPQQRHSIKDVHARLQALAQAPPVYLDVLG

Biological target: TrkA (Homo sapiens (Human), UniProt P04629)
Test: In vitro kinase activity assay (LANCE TR-FRET);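 further: kinase reaction with poly-GT peptide substrate and ATP, phosphorylated product quantified by time-resolved FRET, eleven-point dose curves from 10^−11 to 10^−5 M in triplicate, DMSO as negative control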
Type: biochemical

Substance “(S)-6-(6-Fluoropyridin-3-yl)-2-(2-oxo-4-((1-(2,3,5,6-tetrafluorophenyl)propan-2-yl)amino)-1,2-dihydropyridin-3-yl)imidazo[4,5-f]isoindole-5,7(1H,6H)-dione [Compound 15]” has an IC50 (read-out: TrKA IC50) of over 10000 nM and an IC50 (read-out: TrkA (nM) IC50) of over 10000 nM.

Like-named read-outs stand apart in the source and are kept apart here.
